Test results as given in patent US11814447B2, “Peptide ligands for binding to EphA2” (BICYCLERD LIMITED, priority 2018, dated 2023).

Amino acid sequences for entries named in this document (tags omitted). Residues count along the entry.
UniProt P29317, 24-537 limits assumed: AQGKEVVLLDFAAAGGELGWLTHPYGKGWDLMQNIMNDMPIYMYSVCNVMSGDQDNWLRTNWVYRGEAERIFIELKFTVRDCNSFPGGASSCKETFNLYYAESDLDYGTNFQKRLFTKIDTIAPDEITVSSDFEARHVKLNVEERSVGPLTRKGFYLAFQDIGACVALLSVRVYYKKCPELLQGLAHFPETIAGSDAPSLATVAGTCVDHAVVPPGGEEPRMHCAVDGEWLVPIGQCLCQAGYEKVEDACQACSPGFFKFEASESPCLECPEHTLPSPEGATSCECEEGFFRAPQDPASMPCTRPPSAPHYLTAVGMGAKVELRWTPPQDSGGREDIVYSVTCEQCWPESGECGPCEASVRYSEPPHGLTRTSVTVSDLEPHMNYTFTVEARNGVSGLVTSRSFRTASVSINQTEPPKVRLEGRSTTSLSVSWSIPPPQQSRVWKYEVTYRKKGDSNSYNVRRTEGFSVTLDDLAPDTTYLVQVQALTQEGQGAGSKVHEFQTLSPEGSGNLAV

Assays:
Human EphA2 = Human EphA2 (Homo sapiens, UniProt P29317); experiment: biochemical
Human EphA2 (Ecto) = molecular target: T1, Human EphA2 (Ecto) (Human, UniProt P29317 24-537); experiment: FP competition; tracer Reference Compound C
T1 construct: extracellular domain; in-house)

[1] = molecular target: T2, Human EphA2 (Ecto), C-terminal polyHis (Human, UniProt P29317 24-537); experiment: fluorescence polarisation competition; competitor fluorescent Compound 66
T2 construct: extracellular domain; also called EPH receptor A2; ephrin type-A receptor 2

[2] = molecular target: T2, Human EphA2 (Ecto), C-terminal polyHis; experiment: fluorescence polarisation competition; competitor fluorescent Compound 12
[3] = molecular target: T2, Human EphA2 (Ecto), C-terminal polyHis; experiment: fluorescence polarisation competition; competitor fluorescent Compound 18

For `CC[C@H](C)[C@@H]1NC(=O)[C@H](Cc2c[nH]c3ccccc23)NC(=O)CNC(=O)[C@@H]2CCCN2C(=O)[C@H]([C@@H](C)O)NC(=O)[C@H](CC(C)C)NC(=O)[C@@H]2CSCCC(=O)N3CN(CN(C3)C(=O)CCSC[C@H](NC(=O)[C@H](C)N)C(=O)N3CCC[C@H]3C(=O)N[C@@H](CCSC)C(=O)N[C@@H](C(C)C)C(=O)N[C@@H](CC(N)=O)C(=O)N3CCC[C@H]3C(=O)N[C@@H](CC(C)C)C(=O)N2)C(=O)CCSC[C@@H](C(=O)N[C@@H](C)C(N)=O)NC1=O` [96 (B series)], the Ki (Human EphA2) was 16.1 ± 4.58 nM.

In the case of RHDCPLVNPLCLLPGWTCA (3 Cys thioether-linked to TATA scaffold) [Bicycle Compound Number 80 (TATA scaffold), RHDCPLVNPLCLLPGWTCA], the Ki (Human EphA2 (Ecto)) is reported as 7.11 nM.

With ACPWGPAWCPVSRVCA (3 Cys thioether-linked to TBMB scaffold, also called Compound 49) [Bicycle Compound Number 49 (TBMB scaffold)] the Ki [1] was 428 nM.

ACPLVNPLCLAPGWTCSRS (3 Cys thioether-linked to TATA scaffold) [Bicycle Compound Number 83 (TATA scaffold), ACPLVNPLCLAPGWTCSRS] gave a Ki (Human EphA2 (Ecto)) of 7.05 nM.

Work on ACPWGPAWCPVNGARCA (3 Cys thioether-linked to TBMB scaffold, also called Compound 43) [Bicycle Compound Number 43 (TBMB scaffold)] yielded a Ki [1] of 430 nM.

In the case of ACPWGPAWCPVRSCA (3 Cys thioether-linked to TBMB scaffold, also called Compound 50) [Bicycle Compound Number 50 (TBMB scaffold)], the Ki [1] is reported as 314 nM.

For ACPWGPAWCPVRNPCA (3 Cys thioether-linked to TBMB scaffold, also called Compound 48) [Bicycle Compound Number 48 (TBMB scaffold)], the Ki [1] was 284 nM.

In the case of ACPWGPAWCPVNRPGCA (3 Cys thioether-linked to TBMB scaffold, also called Compound 44) [Bicycle Compound Number 44 (TBMB scaffold)], the Ki [1] is reported as 191 nM.

With ACPWGPNWCPVNRPGCA (3 Cys thioether-linked to TBMB scaffold, also called Compound 47) [Bicycle Compound Number 47 (TBMB scaffold)] the Ki [1] was 78.3 nM.

ACVPQGIWCALRYEPCA (3 Cys thioether-linked to TBMB scaffold, also called Compound 65) [Bicycle Compound Number 65 (TBMB scaffold)] showed a Ki [2] of 229 nM.

Work on ACPWGPAWCPVKPTCA (3 Cys thioether-linked to TBMB scaffold, also called Compound 51) [Bicycle Compound Number 51 (TBMB scaffold)] yielded a Ki [1] of 318 nM.

ANDVTCPWGPFWCPVNRPGCA (3 Cys thioether-linked to TBMB scaffold, also called Compound 61) [Bicycle Compound Number 61 (TBMB scaffold)] showed a Ki [3] of 2.93 nM and a Ki [1] of 7.3 nM.

ADHACPWGPFWCPVNRPGCA (3 Cys thioether-linked to TBMB scaffold, also called Compound 56) [Bicycle Compound Number 56 (TBMB scaffold)] showed a Ki [1] of 5.87 nM.

ACRVSPEYCPFGPTWCA (3 Cys thioether-linked to TBMB scaffold, also called Compound 35) [Bicycle Compound Number 35 (TBMB scaffold)] gave a Ki [1] of 43.2 nM.

With ACRVSPEYCPFGPLWCA (3 Cys thioether-linked to TBMB scaffold, also called Compound 39) [Bicycle Compound Number 39 (TBMB scaffold)] the Ki [1] was 32.1 nM.

Molecule ACRVSPEYCPFGPDWCA (3 Cys thioether-linked to TBMB scaffold, also called Compound 40) [Bicycle Compound Number 40 (TBMB scaffold)] has a Ki [1] of 55.4 nM.

ACMNDWLCQLGWKCA (3 Cys thioether-linked to TBMB scaffold, also called Compound 28) [Bicycle Compound Number 28 (TBMB scaffold)] was tested, and the Ki [1] was 113 nM.

Work on ACMNDWLCELGWTCA (3 Cys thioether-linked to TBMB scaffold, also called Compound 29) [Bicycle Compound Number 29 (TBMB scaffold)] yielded a Ki [1] of 134 nM.

In the case of ACTQNDWLCSLGWTCA (3 Cys thioether-linked to TBMB scaffold, also called Compound 31) [Bicycle Compound Number 31 (TBMB scaffold)], the Ki [1] is reported as 152 nM.
